Reference: patent US20260364057A1, “AMIDE COMPOUND, AND COMPOSITION AND USE THEREOF” (SIMCERE ZAIMING PHARMACEUTICAL CO., LTD., priority 2022, published 2026)

Protein sequences, listed by entry. Tags and fused reporters are not part of them. Residues count along the entry.
UniProt Q8NI77, 1-376 limits assumed: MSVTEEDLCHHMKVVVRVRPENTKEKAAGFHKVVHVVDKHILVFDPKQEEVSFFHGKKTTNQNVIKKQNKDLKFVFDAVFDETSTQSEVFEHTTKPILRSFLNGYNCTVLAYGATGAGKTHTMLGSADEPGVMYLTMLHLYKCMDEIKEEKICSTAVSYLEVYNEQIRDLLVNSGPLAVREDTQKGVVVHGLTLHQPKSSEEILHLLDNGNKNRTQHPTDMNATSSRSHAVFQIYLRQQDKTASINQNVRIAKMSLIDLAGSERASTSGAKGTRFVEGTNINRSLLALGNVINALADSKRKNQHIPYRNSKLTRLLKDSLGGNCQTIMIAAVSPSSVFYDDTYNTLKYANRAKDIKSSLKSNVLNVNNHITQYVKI

Target: Human KIF18A (1-376aa) (Homo sapiens, UniProt Q8NI77)
Experiment: KIF18A enzyme activity assay (ADP-Glo)
Assay type: biochemical
Conditions: read-out: KIF18A inhibitory activity IC50, microtubule 50 μg/mL, ATP (Km 70 μM), room temperature, 15 min

| Structure (SMILES) | IC50 [nM] |
| --- | --- |
| O=C(Nc1cccc2c1nc1n2CC2CC1C2)c1ccc(NS(=O)(=O)CCO)cc1N1CCC2(CC1)CC2 | < 200 |
| O=C(Nc1cc(F)cc2c1nc1n2CCCC1)c1ccc(NS(=O)(=O)CCO)cc1N1CCC2(CC1)CC2 | < 200 |
